Laboratory results as given in ChEMBL document CHEMBL6182944, “Substrate Specificity of the Organic Cation Transporters MATE1 and MATE2K and Functional Overlap with OCT1 and OCT2” (J Med Chem, 2025).

Legend:
[1] = target: T1, Multidrug and toxin extrusion protein 1 (Homo sapiens, UniProt Q96FL8); experiment: Substrate activity at MATE1 (unknown origin) expressed in HEK293 cells assessed as intrinsic clearance by measuring ratio of Vmax (maximum transport velocity) over Km measured per mg of protein by HPLC-MS/MS analysis; type: cell-based
T1 sequence (Q96FL8 whole entry): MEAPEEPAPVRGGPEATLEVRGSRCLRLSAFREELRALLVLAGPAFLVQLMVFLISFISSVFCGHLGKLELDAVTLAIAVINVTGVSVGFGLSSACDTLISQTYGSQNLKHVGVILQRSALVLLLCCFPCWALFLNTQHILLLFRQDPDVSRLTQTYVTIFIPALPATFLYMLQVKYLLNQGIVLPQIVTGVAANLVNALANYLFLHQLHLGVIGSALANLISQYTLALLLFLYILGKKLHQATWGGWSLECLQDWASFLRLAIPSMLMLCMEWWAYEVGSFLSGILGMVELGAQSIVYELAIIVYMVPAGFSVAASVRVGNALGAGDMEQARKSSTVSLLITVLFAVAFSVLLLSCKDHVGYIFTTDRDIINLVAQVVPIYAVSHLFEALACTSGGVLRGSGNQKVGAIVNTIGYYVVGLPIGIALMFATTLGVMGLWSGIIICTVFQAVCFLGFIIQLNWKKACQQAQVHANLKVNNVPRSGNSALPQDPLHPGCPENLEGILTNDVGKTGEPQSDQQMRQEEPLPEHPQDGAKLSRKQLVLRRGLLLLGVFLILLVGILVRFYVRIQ

[2] = target: T2, Multidrug and toxin extrusion protein 2 (Homo sapiens, UniProt Q86VL8); experiment: Substrate activity at MATE2-K (unknown origin) expressed in HEK293 cells assessed as intrinsic clearance by measuring ratio of Vmax (maximum transport velocity) over Km measured per mg of protein by HPLC-MS/MS analysis; type: cell-based
T2 sequence (Q86VL8 whole entry): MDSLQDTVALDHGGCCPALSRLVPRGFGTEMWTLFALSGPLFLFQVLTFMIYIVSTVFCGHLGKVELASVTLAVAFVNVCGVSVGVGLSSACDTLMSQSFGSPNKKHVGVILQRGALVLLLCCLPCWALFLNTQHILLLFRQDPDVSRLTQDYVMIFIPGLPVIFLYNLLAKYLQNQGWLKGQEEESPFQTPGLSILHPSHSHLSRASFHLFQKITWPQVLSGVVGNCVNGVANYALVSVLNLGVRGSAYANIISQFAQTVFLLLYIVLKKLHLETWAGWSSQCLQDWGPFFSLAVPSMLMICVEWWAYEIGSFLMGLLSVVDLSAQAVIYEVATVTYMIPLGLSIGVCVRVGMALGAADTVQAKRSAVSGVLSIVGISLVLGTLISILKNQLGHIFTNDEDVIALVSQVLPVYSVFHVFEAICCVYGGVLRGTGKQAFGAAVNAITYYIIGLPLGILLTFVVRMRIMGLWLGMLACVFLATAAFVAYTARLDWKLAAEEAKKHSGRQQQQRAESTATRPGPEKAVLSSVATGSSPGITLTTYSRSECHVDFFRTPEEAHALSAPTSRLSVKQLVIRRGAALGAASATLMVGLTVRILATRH

not read = substrate: CC(C)NCC(O)COc1ccc(CC(N)=O)cc1; experiment: not read

Row | Molecule | CL [1] [µL/min] | CL [2] [µL/min] | Km (not read) [µM] | Vmax (not read) [µmol/min]
1 | C[N@+]1(CC2CC2)CC[C@]23c4c5ccc(O)c4O[C@H]2C(=O)CC[C@@]3(O)[C@H]1C5 [METHYLNALTREXONE] | 3.12 | 0.48 | – | –
2 | Multidrug and toxin extrusion protein 2 (Homo sapiens) (protein) MDSLQDTVALDHGGCCPALSRLVPRGFGTEMWTLFALSGPLFLFQVLTFMIYIVSTVFCGHLGKVELASVTLAVAFVNVCGVSVGVGLSSACDTLMSQSFGSPNKKHVGVILQRGALVLLLCCLPCWALFLNTQHILLLFRQDPDVSRLTQDYVMIFIPGLPVIFLYNLLAKYLQNQGWLKGQEEESPFQTPGLSILHPSHSHLSRASFHLFQKITWPQVLSGVVGNCVNGVANYALVSVLNLGVRGSAYANIISQFAQTVFLLLYIVLKKLHLETWAGWSSQCLQDWGPFFSLAVPSMLMICVEWWAYEIGSFLMGLLSVVDLSAQAVIYEVATVTYMIPLGLSIGVCVRVGMALGAADTVQAKRSAVSGVLSIVGISLVLGTLISILKNQLGHIFTNDEDVIALVSQVLPVYSVFHVFEAICCVYGGVLRGTGKQAFGAAVNAITYYIIGLPLGILLTFVVRMRIMGLWLGMLACVFLATAAFVAYTARLDWKLAAEEAKKHSGRQQQQRAESTATRPGPEKAVLSSVATGSSPGITLTTYSRSECHVDFFRTPEEAHALSAPTSRLSVKQLVIRRGAALGAASATLMVGLTVRILATRH | – | – | 173 | 0.00179
